This data set in a line: Solubility in basic solutions without cyclodextrin (HPLC). The settings on record: Sample 4: 20 mg AS in 1 mL, 0.05 M Na3PO4; pH 11.55; LOQ = Limit of Quantitation.

Molecules are shown by their SMILES. A value given as a limit tells only on which side of the number the result lay.

On to `CC(C)c1c(C(=O)Nc2ccccc2)c(-c2ccccc2)c(-c2ccc(F)cc2)n1CC[C@@H](O)C[C@@H](O)CC(=O)O` [AS, Atorvastatin free acid], for which the “resulting AS concentration” value is “< LOQ”.

(Values after patent US9820966B2, “Stabilized statin formulations” (Cumberland Pharmaceuticals Inc., priority 2010, dated 2017).)
